Each structure is given as a SMILES string. The entries are a selection whose mix differs from that of the whole data set. Activity calls are given as the source filed them.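 Rule for the calls: active = HER2 level under 5% of the carrier-only control; inconclusive = no clear call, values can overlap the other calls; inactive = the rest.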

By UniProt entry, the sequences of proteins in these tests, tags left out.
UniProt P04626, whole entry: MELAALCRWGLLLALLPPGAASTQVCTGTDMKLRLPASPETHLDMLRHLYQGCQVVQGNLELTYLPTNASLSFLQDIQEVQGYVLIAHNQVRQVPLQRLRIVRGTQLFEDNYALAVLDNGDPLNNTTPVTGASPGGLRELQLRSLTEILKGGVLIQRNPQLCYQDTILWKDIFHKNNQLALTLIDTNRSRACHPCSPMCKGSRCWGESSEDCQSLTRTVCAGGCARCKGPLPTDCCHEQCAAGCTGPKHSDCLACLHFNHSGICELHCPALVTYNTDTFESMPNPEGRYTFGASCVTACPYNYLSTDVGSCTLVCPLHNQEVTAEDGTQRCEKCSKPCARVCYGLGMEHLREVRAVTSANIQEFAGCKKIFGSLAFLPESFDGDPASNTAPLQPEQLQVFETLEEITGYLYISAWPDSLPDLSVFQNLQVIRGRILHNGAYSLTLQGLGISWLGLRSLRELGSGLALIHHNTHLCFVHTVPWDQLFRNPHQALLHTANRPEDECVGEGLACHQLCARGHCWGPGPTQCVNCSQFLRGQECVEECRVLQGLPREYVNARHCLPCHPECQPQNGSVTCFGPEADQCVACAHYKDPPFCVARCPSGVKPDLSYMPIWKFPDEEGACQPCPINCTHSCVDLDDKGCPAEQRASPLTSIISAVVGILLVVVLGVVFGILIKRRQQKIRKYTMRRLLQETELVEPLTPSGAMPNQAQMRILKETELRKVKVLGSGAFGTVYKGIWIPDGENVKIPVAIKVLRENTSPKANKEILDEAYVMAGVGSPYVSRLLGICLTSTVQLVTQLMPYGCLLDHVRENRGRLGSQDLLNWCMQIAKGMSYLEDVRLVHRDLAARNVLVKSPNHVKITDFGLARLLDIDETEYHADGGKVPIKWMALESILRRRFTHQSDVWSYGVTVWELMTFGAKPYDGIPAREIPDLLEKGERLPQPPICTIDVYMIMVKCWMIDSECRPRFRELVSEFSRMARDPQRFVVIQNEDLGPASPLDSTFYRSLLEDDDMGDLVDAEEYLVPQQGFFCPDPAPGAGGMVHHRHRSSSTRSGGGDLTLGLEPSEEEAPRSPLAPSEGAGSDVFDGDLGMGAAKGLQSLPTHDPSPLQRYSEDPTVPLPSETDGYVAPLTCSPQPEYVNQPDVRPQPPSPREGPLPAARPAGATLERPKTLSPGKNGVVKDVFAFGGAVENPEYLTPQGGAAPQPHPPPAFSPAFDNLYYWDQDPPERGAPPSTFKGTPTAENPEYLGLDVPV

This assay concerns the target Receptor tyrosine-protein kinase erbB-2 (Homo sapiens) (UniProt P04626). In words: reducers of endogenous HER2 protein levels – SKBR-3 cells, AlphaScreen, 66K library, primary screen (AID 645).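 Note: 100% = DMSO carrier and 0% = 500 nM PU-H71 HSP90 inhibitor; lower value means stronger loss of Her2 protein.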 The note with it: SKBR-3 HER2 protein level, 18-24 h, at 10 µM, stronger effect = lower value. Background: Bead proximity is the source of the signal in Alpha formats.
For the compound `N#CC1(Nc2ccccc2)CCN(CCc2ccccc2)CC1`, the HER2 level % of control was inactive: 84.9%. As for `O=C(OC1CN2CCC1CC2)C1c2ccccc2Oc2ccccc21` (configuration not stated), the HER2 level % of control is inactive: 117%. For the compound `COc1ccc(NC2CCN(CCc3ccccc3)CC2)c(OC)c1`, the HER2 level % of control was inactive: 84.9%. Regarding `Fc1ccccc1NC1CCN(Cc2ccccc2)CC1`, the HER2 level % of control is inactive: 68.7%.

As for `CCC(CO)(C(=O)OC1CN2CCC1CC2)c1ccccc1` (configuration not stated), the HER2 level % of control was inactive: 95%. Regarding `CCOc1ncccc1C(=O)NCC1(N2CCOCC2)CCCCC1`, the HER2 level % of control is inactive: 88.1%. `N/C(=N\O)c1c(N)no[n+]1[O-]`: the HER2 level % of control was inactive: 110%.
